Laboratory results as given in US20080124780A1, “Hybrid immobilized catalytic system with controlled permeability” (NORTHEASTERN UNIVERSITY, priority 2002, published 2008).
Like-named read-outs stand apart in the source and are kept apart here.

System: β-galactosidase
Conditions: FIGS. 9-12 (FIG. 12: after 24 hours)

β-galactosidase [free enzyme] was tested, and the “enzyme stability (activity remaining)” value (4° C.) was 93% and the “enzyme stability (activity remaining)” value (37° C.) was 28%.
